Test system: penicillin hypersensitivity (patients)
Experiment: Clinical evaluation by 26 investigators: scratch/intradermal skin tests with PPL and Penicillin G (Tables IV-VII, IX-XI)
Assay type: in vivo, human
Procedure: Twenty-six clinical investigators contributed a total of 1160 cases to the evaluation. Patients were tested according to a protocol as follows:
1. All patients being subjected to allergy investigation were to be tested for penicillin hypersensitivity. Two preparations were to be used. These are:
1. Penicilloyl-polylysine (PPL) prepared by the procedure set forth in Example I and as identified in Example II in a concentration of 6 × 10^-^5 M (Penicilloyl).
2. Penicillin G (Benzyl Penicillin) in a concentration of 10,000 units per cc.
For maximum safety, it was recommended that the tests first be done by the scratch technique. Intradermal tests were then to be done on those showing negative scratch tests. […]
A uniform technique was recommended for the performance of the intradermal tests. […] The reactions were to be recorded in terms of (1) the time required for the appearance of a reaction, (2) the size of erythema and (3) the size of whealing. These were to be recorded as actual measurements. Some objective measurement of dermographism was also to be recorded. […]
Table IV summarizes the skin test results on all patients, without regard to other specific factors. […] For these reasons erythema alone responses were counted with the negatives. In some instances, however, data will be presented in which erythema without wheal are counted as positive responses (figures appearing in parentheses).

## penicilloyl-poly-L-lysine [PPL]
  safety of skin testing: safe

Source: US3979508A, “Compositions and methods therewith for penicillin hypersensitivity detection” (Kremers-Urban Company, priority 1975, dated 1976)
